Source: patent US11124489B2, “EPAC antagonists” (priority 2017, dated 2021)
“And” between values parts separate entries of the source, which are not always exact repeats. Identical values can stand only once.

Columns and labels:
[1] = molecular target: EPAC2 (Mus musculus (Mouse), UniProt Q9EQZ6)
[2] = molecular target: EPAC1 (Homo sapiens (Human), UniProt O95398); settings: read-out: Rap 1b-bGDP EPAC1 IC50; apparent IC50, EPAC1 GEF activity, 20 μM cAMP

## N-(3,5-Bis(trifluoromethyl)phenyl)-2-(5-(4-chlorophenyl)isoxazol-3-yl)-2-oxoacetohydrazonoyl cyanide [Compound 24]
[1]; in the presence of 20 μM cAMP, figure
  Relative GEF activity, EPAC2-mediated Rap1b-bGDP exchange: Dose-dependent inhibition
[1]; read-out: Rap1b-bGDP EPAC2 IC50, apparent IC50, EPAC2 GEF activity, 20 μM cAMP
  IC50: 7 ± 0.9 µM
[2]
  IC50: 5.6 µM and < 8 µM
